# Data taken from patent US6376461B1, “Sustained-release preparation” (Takeda Chemical Industries, Ltd., priority 1993, dated 2002).
# Like-named read-outs stand apart in the source and are kept apart here.
substance,measurement,setting,value
human growth hormone,human growth hormone precipitated,"molar ratio of zinc atom to growth hormone 5, zinc acetate in distilled water",about 60%
same,human growth hormone precipitated,molar ratio of zinc atom to growth hormone 7 or more,~100%
